Source: publication PMC9287337 (Scientific Reports, 2022)
Several values for one entry are separate records, joined by “and”; a condition that tells them apart may be missing. Equal values may be shown once.

Columns and labels:
Assay type in all cases: cell-based, mouse
C2C12 cells = test: RealTime-Glo MT cell viability assay; details: C2C12, 24 h, Supplemental Fig. S3
Procedure: To first determine how these novel compounds effect the health of C2C12 cells and to establish the range of subtoxic concentrations for future studies, cell viability assays were carried out. Serum-starved C2C12 cells were exposed to increasing concentrations (0.01–1000 µM) of SY-LB-35 and SY-LB-57 for 24 h. Exposure to Triton X-100 (125 µM) is toxic to cells and was used as a negative control for cell viability. Following the 24-h exposure period, the MT Cell viability substrate was added to the cultures. Only viable cells can reduce the substrate and, thereby, generate a luminescent signal. Any decrease in luminescence was considered an indication of cell death or toxicity. In contrast, increases in luminescence signals are typically due to proliferation of cells in the treated cultures. […]
Next, reagents from the RealTime-Glo™ MT Cell Viability Assay Kit (Promega, Madison, WI, USA) were diluted in SS medium and used according to manufacturer’s protocol. Cellular luminescence was measured using the FilterMax F5 Multi-mode Microplate Reader (Molecular Devices, San Jose, CA, USA). Data from three independent experiments with individual experiments carried out in triplicate was determined and reported as a percentage of control.

[1] = tested on: p-Smad1/5/8 (Smad phosphorylation); test: Western blot of p-Smad normalized to total Smad; details: 50 ng/mL, 30 min
Procedure: To investigate whether the new indolyl-benzimidazole compounds activate BMP receptor-dependent signaling pathways, the levels of p-Smad in serum-starved C2C12 cells, treated for 30 min with SY-LB-35 and SY-LB-57, were assessed by Western blot analysis. Whole cell lysates of treated C2C12 cells were probed for p-Smad using phospho-specific anti-Smad antibodies. p-Smad levels were normalized against total Smad levels. BMP2-stimulated cells served as positive control and unstimulated cells helped to establish the baseline levels of p-Smad.
(§1) C2C12 cells (3 mL) were seeded into 35 mm dishes at 7.5 × 10^4 cells/mL in complete growth medium, incubated to reach 80% confluence and serum-starved for 16–18 h. Next, cells were treated with 50 ng/mL BMP2 and increasing concentrations of SY-LB-35 or SY-LB-57 for 15 min, 30 min or 24 h. Thereafter, the cultures were washed with ice-cold 1X TBS for 2 min. […]
(§2) Laemmli sample buffer (4X) was added to the whole cell lysates (20 µg) to a final concentration of 1X and heated at 100 °C for 5 min. […] Finally, the blots were developed using SuperSignal ™ West Femto HRP Substrate solutions (Thermo Scientific, Rockford, IL, USA) and analysed using the Omega Lum™ G Imaging System (San Francisco, CA, USA). Quantification of chemiluminescent signals was carried out using ImageJ (Image Processing and Analysis in Java 1.8.0_112).

[2] = tested on: p-Smad nuclear translocation; test: Immunofluorescent labeling of p-Smad nuclear translocation; details: 50 ng/mL, 30 min
Procedure: To establish that SY-LB-35 and SY-LB-57 also stimulate the translocation of phosphorylated Smad to the nucleus, immunofluorescent labeling was performed. Serum-starved C2C12 cells grown on poly-D-lysine (PDL)-coated coverslips were stimulated with BMP2 (50 ng/mL), SY-LB-35 (1 µM) or SY-LB-57 (1 µM) for 30 min. The cultures were fixed and labelled with anti-p-Smad antibodies (red) and DAPI (blue), which stains the nuclei (Fig. 5B–E). In control, unstimulated C2C12 cells, low levels of diffuse, cytoplasmic p-Smad labeling were detected (Fig. 5B). […] Thus, like BMP2, SY-LB-35 and SY-LB-57 not only strongly stimulated Smad phosphorylation but also prompted p-Smad nuclear translocation.
(§3) In a 24-well plate, 12 mm glass coverslips were coated for 1 h at RT with 500 µL PDL (0.1 mg/mL/ 0.1 M Boric acid), washed 4 times with cell culture-grade distilled water and sterilized under UV light for 30 min. C2C12 cells (500 µL) were seeded onto the PDL-coated coverslips at a density of 1 × 10^5 cells/mL, grown to 80% confluency and starved in SS medium for 2 h. Next, the cells were treated with 50 ng/mL BMP2 or 1 µM SY-LB-35 or SY-LB-57 for 15 min (for p-Akt labelling) or 30 min (for p-Smad labelling). Cells were then fixed using ice-cold 4% PFA/PBS for 10 min at RT. […]

[3] = tested on: p-Akt (Akt phosphorylation); test: Western blot of p-Akt normalized to total Akt; details: 50 ng/mL, 15 min
Procedure: (§4) To ascertain whether these novel indolyl-benzimidazole compounds can also activate non-canonical BMP-related pathways, stimulation of the PI3K/Akt pathway was assessed by first monitoring changes in the level of p-Akt in response to SY-LB-35 and SY-LB-57. Serum-starved C2C12 cells were stimulated with BMP2 (50 ng/mL) or increasing concentrations of SY-LB-35 and SY-LB-57 (0.01–10 µM) for 15 min.
C2C12 cells (3 mL) were seeded into 35 mm dishes at 7.5 × 10^4 cells/mL in complete growth medium, incubated to reach 80% confluence and serum-starved for 16–18 h. Next, cells were treated with 50 ng/mL BMP2 and increasing concentrations of SY-LB-35 or SY-LB-57 for 15 min, 30 min or 24 h. Thereafter, the cultures were washed with ice-cold 1X TBS for 2 min. Lysis Buffer (Cell Signaling Technology, Danvers, MA, USA) supplemented with 1 mM PMSF (phenylmethylsulphonyl fluoride) was added to the cultures and whole cell lysates were prepared.
as §2

[4] = tested on: p-Akt cytoplasmic localization; test: Immunofluorescent labeling of p-Akt; details: 50 ng/mL, 15 min
Procedure: as §4
as §3, with “RT. Next, the coverslips were washed with ice-cold 1X PBS, transferred to a humidified chamber and incubated (100 µL/coverslip) in Permeabilization solution (0.1% Triton X-100/PBS) for 15 min, then Blocking Buffer (10% heat inactivated goat serum/ 0.3% Triton X-100/PBS) for 30 min. Anti-p-Smad antibodies in Antibody Dilution Buffer (1% BSA/0.1% Tween 20/PBS) were added for 1 h and the coverslips were washed 4 times with 1X PBS.” for “RT.”

[5] = tested on: p-PI3K (PI3K phosphorylation); test: Western blot of p-PI3K normalized to β-actin; details: 50 ng/mL, 15 min
Procedure: To directly assess the activation of the PI3K enzyme, Western blot analysis was carried out on C2C12 cell whole cell lysates after a 15-min stimulation with 0.01–10 µM SY-LB-35 or SY-LB-57. SY-LB-35 and SY-LB-57 stimulated significant increases in the level of PI3K phosphorylation at 15 min at all concentrations tested (> 300% increase, ****p < 0.0005; Fig. 7A and Supplemental Fig. S6). Thus, the novel compounds appear to directly affect the phosphorylation of the PI3K enzyme.
as §1, §2

PI3K enzyme = test: PI3K ELISA on PI3K immunoprecipitated from treated cells; details: 50 ng/mL, 15 min
Procedure: To investigate whether the novel benzimidazoles directly regulate PI3K enzymatic activity, serum-starved C2C12 cells were stimulated with 50 ng/mL BMP2, 10 µM SY-LB-35, or 10 µM SY-LB-57 for 15 min and whole cell lysates were prepared. PI3K enzyme was immunoprecipitated and processed in a PI3K ELISA (Fig. 7B). A standard curve of known concentrations of PIP3 versus absorbance was plotted and used to determine the amount of PIP3 generated from a PIP2 substrate by active PI3K enzyme immunoprecipitated from the treated cell samples (Supplemental Fig. S7). The enzyme activity is expressed as the amount of product (PIP3) generated in each sample by the PI3K enzyme per minute of reaction.
C2C12 cells were seeded in 35-mm dishes at 7 × 10^4 cells/mL and incubated at 37 °C in 5% CO2 to reach 80% confluency. The cells were starved for 16–18 h and then stimulated with BMP2 (50 ng/mL) as positive control and SY-LB-35 and SY-LB-57 at 10 µM for 15 min at 37 °C. Cells (~ 10^6) per treatment were collected to prepare whole cell lysates followed by exposure to three freeze/thaw cycles in liquid nitrogen. […] The optical density of the PIP3 standards and the reactions containing immunoprecipitated PI3K from treated samples was measured at 450 nm.

[6] = tested on: type I BMP receptor-dependent p-Smad; test: Western blot of p-Smad in presence or absence of Dorsomorphin; details: 50 ng/mL, 30 min
Procedure: To examine the contribution of type I BMP receptor activity to SY-LB-35- and SY-LB-57-stimulated Smad signaling, serum-starved C2C12 cells were stimulated with SY-LB-35 or SY-LB-57 at 1 µM for 30 min in presence or absence of Dorsomorphin (DM; a non-selective inhibitor of type I BMP receptors; 10 µM). Total whole cell lysates were prepared and used for Western blot analysis of Smad phosphorylation using anti-p-Smad antibodies.
as §1, §2

BMP2: recombinant Bone Morphogenetic Protein 2, positive control
Effect on cell viability (C2C12 cells): Increases in cell viability | Increase in p-Smad level over control [1]: 95 % over control and ~ 100 % over control | p-Smad level, percent of control [1]: 195% | p-Smad nuclear translocation [2]: drastic increase in the level of phosphorylated Smad localized to the nucleus | Increase in p-Akt level over control [3]: 813 % over control | p-Akt level, percent of control [3]: 913% | p-Akt immunofluorescent labeling [4]: drastic increase in the level of phosphorylated Akt localized to the cytoplasm | p-PI3K level, percent of control [5]: 589% | PIP3 produced, higher compared to control untreated cells (PI3K enzyme): 30% | Amount of PIP3 produced by PI3K enzyme (PI3K enzyme; control 0.61 pmol): 0.79 pmol | p-Smad level, DM(+) ([6]; Dorsomorphin 10 µM pretreatment 1 h): 122% | p-Smad level, DM(−) ([6]; without Dorsomorphin): 428%
